{"source": "patent US5041142A", "about": "“Peroxymetallates and their use as bleach activating catalysts” (Lever Brothers Company, division of Conopco Inc., priority 1990, dated 1991)", "key": {"[1]": {"test": "Reactivity with Ragu extract in solution (reaction of Ragu stain and hydrogen peroxide, UV/Vis)", "details": "Time = 100 secs; corrected for the effect of hydrogen peroxide alone"}, "[2]": {"test": "Bleaching of tea-stained cloth (BC-1 cloth), reflectance change versus hydrogen peroxide alone", "details": "for ΔΔR: room temperature, 5 mM complex and 10 mM hydrogen peroxide, 2 h"}}}
{"smiles": "CCc1ccncc1.CCc1ccncc1.[O]=[Mo]12([O][O]1)[O][O]2", "note": "[MoO5 (C2 H5 C5 H4 N)2, bis(4-ethylpyridine)diperoxomonooxo-molybdenumVI]", "values": [{"measurement": "Change Abs 480 nm", "setting": "[1]", "result": 0.02}, {"measurement": "lowering of ΔΔR by use of dmf as solvent", "setting": "[2]; dmf instead of methanol/acetonitrile mix", "result": "~ 1 BC-1 unit"}, {"measurement": "ΔΔR", "setting": "[2]; pH 8", "result": 2.2}, {"measurement": "ΔΔR", "setting": "[2]; pH 9", "result": -0.5}, {"measurement": "ΔΔR", "setting": "[2]; pH 10", "result": -2.7}]}
{"smiles": "C[N+](C)(C)CCOC(=O)c1ccncc1.O.[Cl-].[O]=[Mo]12([O][O]1)[O][O]2", "note": "[4-cholylpyridinecarboxylatediperoxomonooxomolybdenumVI chloride hydrate]", "values": [{"measurement": "Change Abs 480 nm", "setting": "[1]", "result": 0.03}, {"measurement": "bleaching (ΔΔR)", "setting": "[2]; 0.5 mM complex", "result": 2.1, "unit": "units"}, {"measurement": "bleaching (ΔΔR)", "setting": "[2]; 5 mM complex", "result": 4.5, "unit": "BC-1 units"}, {"measurement": "maximum ΔΔR", "setting": "[2]; pH 8, 5 mM complex/25° C.", "result": 4.5}, {"measurement": "ΔΔR", "setting": "[2]; pH 8", "result": 4.5}, {"measurement": "ΔΔR", "setting": "[2]; pH 9", "result": 2.0}, {"measurement": "ΔΔR", "setting": "[2]; pH 10", "result": 3.9}]}
